Measurements taken from ChEMBL document CHEMBL1145929, “Syntheses and binding studies of new [(aryl)(aryloxy)methyl]piperidine derivatives and related compounds as potential antidepressant drugs with high affinity for serotonin (5-HT) and norepinephrine (NE) transporters” (J Med Chem, 2003).

Protein sequences, listed by entry. Tags and fused reporters are not part of them.
UniProt Q9WTR4, whole entry: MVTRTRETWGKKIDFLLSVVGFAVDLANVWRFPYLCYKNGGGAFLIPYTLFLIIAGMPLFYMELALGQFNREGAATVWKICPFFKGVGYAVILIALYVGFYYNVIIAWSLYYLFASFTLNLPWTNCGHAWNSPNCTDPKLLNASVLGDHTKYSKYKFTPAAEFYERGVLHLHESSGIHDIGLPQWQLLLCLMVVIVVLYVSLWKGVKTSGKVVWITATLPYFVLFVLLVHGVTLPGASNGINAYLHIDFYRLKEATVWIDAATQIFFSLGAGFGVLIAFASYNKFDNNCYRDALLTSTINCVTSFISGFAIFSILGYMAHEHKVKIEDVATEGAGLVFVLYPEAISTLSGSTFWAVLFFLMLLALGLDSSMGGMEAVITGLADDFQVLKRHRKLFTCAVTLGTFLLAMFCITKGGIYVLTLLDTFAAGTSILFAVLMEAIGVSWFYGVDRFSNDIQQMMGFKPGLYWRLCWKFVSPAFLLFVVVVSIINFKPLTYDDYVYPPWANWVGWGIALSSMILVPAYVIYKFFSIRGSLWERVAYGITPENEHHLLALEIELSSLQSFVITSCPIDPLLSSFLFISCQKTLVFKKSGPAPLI
UniProt P14842, whole entry: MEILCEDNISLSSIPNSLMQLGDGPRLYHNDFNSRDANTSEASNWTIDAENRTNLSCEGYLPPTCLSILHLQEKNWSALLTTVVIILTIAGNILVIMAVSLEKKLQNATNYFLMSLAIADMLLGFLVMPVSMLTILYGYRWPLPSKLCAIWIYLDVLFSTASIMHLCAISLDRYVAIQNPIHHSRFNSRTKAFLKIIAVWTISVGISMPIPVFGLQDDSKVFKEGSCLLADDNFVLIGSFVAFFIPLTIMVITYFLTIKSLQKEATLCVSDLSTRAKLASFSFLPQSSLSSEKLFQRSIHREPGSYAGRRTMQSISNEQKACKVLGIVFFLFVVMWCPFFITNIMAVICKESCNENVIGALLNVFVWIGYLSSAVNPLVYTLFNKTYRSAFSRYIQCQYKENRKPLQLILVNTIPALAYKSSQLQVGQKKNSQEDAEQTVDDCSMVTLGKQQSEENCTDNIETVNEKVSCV
UniProt P31652, whole entry: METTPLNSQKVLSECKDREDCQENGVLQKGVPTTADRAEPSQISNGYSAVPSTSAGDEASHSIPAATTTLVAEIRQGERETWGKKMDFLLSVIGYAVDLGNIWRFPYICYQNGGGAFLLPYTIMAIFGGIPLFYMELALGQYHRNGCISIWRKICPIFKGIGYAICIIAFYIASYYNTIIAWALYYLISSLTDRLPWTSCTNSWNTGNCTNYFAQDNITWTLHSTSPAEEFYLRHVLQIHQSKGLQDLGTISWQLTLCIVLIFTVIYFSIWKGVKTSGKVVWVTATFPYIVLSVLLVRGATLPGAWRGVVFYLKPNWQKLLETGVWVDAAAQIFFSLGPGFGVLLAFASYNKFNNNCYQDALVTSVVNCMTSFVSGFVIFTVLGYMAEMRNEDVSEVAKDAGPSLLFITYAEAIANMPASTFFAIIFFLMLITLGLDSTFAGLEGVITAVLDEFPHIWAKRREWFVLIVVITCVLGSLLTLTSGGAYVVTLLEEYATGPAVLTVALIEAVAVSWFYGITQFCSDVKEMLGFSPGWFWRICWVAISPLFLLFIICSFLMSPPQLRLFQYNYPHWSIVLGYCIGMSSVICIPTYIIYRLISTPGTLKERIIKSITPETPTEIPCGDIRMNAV
UniProt P23977, whole entry: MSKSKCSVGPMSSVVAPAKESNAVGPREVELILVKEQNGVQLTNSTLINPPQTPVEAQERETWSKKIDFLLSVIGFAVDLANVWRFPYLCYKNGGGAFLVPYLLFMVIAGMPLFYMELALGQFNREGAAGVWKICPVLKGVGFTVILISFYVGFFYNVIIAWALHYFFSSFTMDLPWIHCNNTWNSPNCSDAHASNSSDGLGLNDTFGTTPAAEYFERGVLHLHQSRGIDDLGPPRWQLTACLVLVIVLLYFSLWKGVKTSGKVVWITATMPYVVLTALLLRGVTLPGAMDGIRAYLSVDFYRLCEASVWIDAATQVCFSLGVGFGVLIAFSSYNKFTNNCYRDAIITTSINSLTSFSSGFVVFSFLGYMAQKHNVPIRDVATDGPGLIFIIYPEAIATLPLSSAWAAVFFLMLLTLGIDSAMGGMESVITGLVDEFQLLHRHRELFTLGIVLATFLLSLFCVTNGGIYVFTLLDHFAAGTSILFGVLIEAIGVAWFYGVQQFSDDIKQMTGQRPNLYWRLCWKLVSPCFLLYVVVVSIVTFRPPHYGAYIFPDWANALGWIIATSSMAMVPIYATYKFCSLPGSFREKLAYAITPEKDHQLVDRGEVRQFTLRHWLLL

Tests used:
[1] = target: Norepinephrine transporter (Rattus norvegicus, UniProt Q9WTR4); assay: Binding affinity against norepinephrine transporter (NET) by displacement of [3H]nisoxetine in male wistar rats
[2] = target: 5-hydroxytryptamine receptor 2A (Rattus norvegicus, UniProt P14842); assay: Binding affinity against 5-hydroxytryptamine 2A receptor by displacement of [3H]ketanserin from rat prefrontal cerebral cortex mambranes; format: tissue-based, Frontal cortex
[3] = target: Sodium-dependent serotonin transporter (Rattus norvegicus, UniProt P31652); assay: Binding affinity to the serotonin transporter (SERT) measured by displacement of [3H]paroxetine in male wistar rats
[4] = target: Sodium-dependent dopamine transporter (Rattus norvegicus, UniProt P23977); assay: Binding affinity against dopamine transporter (DAT) by displacement of [3H]WIN-35428 in male wistar rats

SMILES: CN1CCN2c3ncccc3Cc3ccccc3C2C1 (stereo not given) [MIRTAZAPINE]
Ki [2]: 14.8 nM

SMILES: COc1ccc(C(CN(C)C)C2(O)CCCCC2)cc1 (stereo not given) [VENLAFAXINE]
IC50 [4]: > 1000 nM

The next lines start with the values.

IC50 [1]: > 1000 nM
SMILES: Fc1ccc(OC(c2ccccc2)C2CCNCC2)cc1 (single isomer, unassigned; (-))

Ki [1]: 9.9 nM
SMILES: CNCCC(Oc1ccccc1OC)c1ccccc1 (stereo not given) [NISOXETINE]

Ki [3]: 0.7 nM
SMILES: Fc1ccc([C@@H]2CCNC[C@H]2COc2ccc3c(c2)OCO3)cc1 [PAROXETINE]

One block for each molecule: values may come before it.
